# Measurements taken from PMC11345774, “Discovery of Novel, Selective, and Nonbasic Agonists for the Kappa-Opioid Receptor Determined by Salvinorin A-Based Virtual Screening” (Journal of Medicinal Chemistry, 2024).
# By UniProt entry, the sequences of proteins in these tests, tags left out. Where a name states a change or a piece, a line headed by the entry shows the natural chain unless it says otherwise.
# UniProt P41145: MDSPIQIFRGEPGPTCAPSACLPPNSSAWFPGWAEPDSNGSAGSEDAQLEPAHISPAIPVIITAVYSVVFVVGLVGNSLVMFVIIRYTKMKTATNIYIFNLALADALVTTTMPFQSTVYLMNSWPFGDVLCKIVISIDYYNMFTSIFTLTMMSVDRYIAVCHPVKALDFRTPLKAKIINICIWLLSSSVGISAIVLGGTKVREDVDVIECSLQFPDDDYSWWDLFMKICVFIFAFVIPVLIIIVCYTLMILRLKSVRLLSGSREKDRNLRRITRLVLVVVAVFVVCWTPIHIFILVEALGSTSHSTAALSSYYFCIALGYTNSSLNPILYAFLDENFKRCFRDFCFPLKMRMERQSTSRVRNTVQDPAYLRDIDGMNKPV
# Biological target: human KOR (Homo sapiens, UniProt P41145)
# Test: PathHunter β-arrestin2 recruitment assay, U2OS-hKOR-β-arrestin2 cells
# Assay type: cell-based
# Settings: relative to maximal effect of U69,593 (as 100%)
structure (smiles),measurement,value
CN(C(=O)Cc1ccccc1)[C@H]1CC[C@@]2(CCCO2)C[C@@H]1N1CCCC1,β-arrestin2 recruitment Emax,100%
